Hits are enriched below; roughly 16% of the tested compounds scored in any of these assays.
TDP1 block: TDP1 (human) enzyme inhibition; Potency, µM (doses to about 130 µM), for the others: top-dose activity change, negative = inhibition, usual class: inhibitors; 350,000 tested, 0.28% active; recombinant TDP1, AlphaScreen DNA substrate cleavage; AID 485290; further: potency means the concentration at half of the fitted maximal effect; on the % scale 0 is the no-effect control and ±100 the full control effect; nearly all actives have a fitted effect of over 40% in size
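Recombinant human Tdp1 (E. coli-expressed, 1 nM final) preincubated with compounds 15 min at room temperature, then 5'-biotin/3'-phosphotyrosine-FITC DNA substrate (15 nM final) added for 5 min. AlphaScreen beads (10 ug/ml final) added 10 min; cleavage lowers signal.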
TDP1 cell noCPT: qHTS for Inhibitors of human tyrosyl-DNA phosphodiesterase 1 (TDP1): qHTS in cells in absence of CPT | DT40 Tdp1-/- hTDP1 cells, no CPT, ATP luminescence, 48 h | 420,000 tested, 15% active | Potency, µM (doses to about 46.2 µM), without a hit: at the top dose activity change, negative = growth inhibition, hits mostly inhibitors | AID 686978, 2013; further: potency means the concentration at half of the fitted maximal effect; on the % scale 0 is the no-effect control and ±100 the full control effect; nearly all actives have a fitted effect of over 55% in size
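Growth of hTDP1-complemented DT40 Tdp1-knockout cells is measured by ATP luminescence after at least 48 hr compound exposure at 37 °C, with DMSO substituting for the 20 nM CPT used in the parallel screen.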
uPA surface inh: blocks generation of uPA at the cell surface; cell surface uPA generation assay, qHTS; Potency, µM (series often up to 38.3 µM), for the others: at the top dose activity change, negative = inhibition, most hits filed as inhibitors; 330,000 tested, 0.31% active; active means well fitted inhibition curve with a large enough effect; inconclusive means small, poorly fitted or top-dose-only effect; inactive means no such curve, though single readings can be large or run the other way; tested in mouse RAW 264.7 cells; further: potency means the concentration at half of the fitted maximal effect; on the % scale 0 is the no-effect control and ±100 the full control effect; nearly all actives have a fitted effect of over 55% in size
DT40 TDP1 CPT: growth inhibition of DT40 Tdp1-/-;hTDP1 cells with camptothecin (screen for TDP1 inhibitors); chicken DT40 Tdp1-/-;hTDP1 cells + 20 nM CPT, ATP luminescence, 48 h; Potency, µM (doses to about 46.2 µM), without a hit: at the top dose activity change, negative = growth inhibition, actives largely listed as inhibitors; 420,000 tested, 12% active; further: potency means the concentration at half of the fitted maximal effect; on the % scale 0 is the no-effect control and ±100 the full control effect; nearly all actives have a fitted effect of over 55% in size
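Cell growth measured by CellTiter-Glo luminescence after a minimum 48 h, 37 C compound exposure with 20 nM CPT in Tdp1-knockout DT40 cells stably expressing hTDP1, seeded 400/well; qHTS titration format.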
miR-21 reporter: miR-21 reporter, rising signal; 340,000 tested, under 10 active; Potency, µM (highest dose often 38.3 µM), for the others: top-dose reporter change, positive = more light; HeLa miR-21 FLuc reporter, luciferase, 48 h; active = well fitted rising curve with a large enough effect; inconclusive = small, poorly fitted or top-dose-only effect; inactive = no such curve, though single readings can be large or run the other way;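 further: % of control where 0% means no effect; miR-21 action dims this reporter so a rising signal means less miR-21 action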
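Luminescence from a firefly luciferase reporter carrying a miR-21 binding site downstream, stably expressed under a CMV promoter in HeLa cells that make miR-21 endogenously, reports miRNA modulation after 48 h compound exposure up to approximately 40uM final.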
* hit, by the source's call; ? = inconclusive; · = no result given; [ ] = remark or other dose. Unless noted, the call rests on the fitted dose curve; in most records, active means well fitted curve in the direction sought with a large enough effect; inconclusive means small, poorly fitted or top-dose-only effect, or another doubt; inactive means no such curve, though single readings can be large; an effect the other way counts as inactive or inconclusive.

1: O=C(CSc1nnnn1-c1ccc(Cl)cc1)NC(=O)Nc1ccc2c(c1)OCCO2
2: COc1ccc(NC(=O)CSc2nnnn2-c2ccc(F)cc2)cc1
3: O=C(CSc1nnnn1-c1ccccc1Cl)Nc1ccc2c(c1)OCCO2
4: O=C(CSc1nnnn1-c1ccc(F)cc1)Nc1ccc(N2CCOCC2)c(Cl)c1
5: Cn1c(C(=O)OC(C(=O)NCC2CCCO2)c2cccnc2)cc2sccc21 (stereo unspecified)
6: COc1ccc(CCNC(=O)/C(C#N)=C/c2cccc(OCc3ccccc3)c2)cc1OC
7: NNC(=O)CN1C(=O)Nc2ccc(Cl)cc2C1c1ccccc1 (stereo unspecified)
8: c1ccc(-c2ccc3ccccc3n2)cc1

entry no.,1,2,3,4,5,6,7,8
TDP1 block,2%,·,1%,6%,6%,1%,·,·
TDP1 cell noCPT,1%,?,21µM*,?,-38%,18µM*,3%,-12%
uPA surface inh,-4%,6%,8%,·,-95%,-2%,7%,-21%
DT40 TDP1 CPT,-27%,-11%,16µM*,15µM*,-5%,?,-5%,5%
miR-21 reporter,-41%,-6%,-14%,9%,-7%,-14%,0%,·

Rewritten with each value named: 2 of the compounds above
[2] COc1ccc(NC(=O)CSc2nnnn2-c2ccc(F)cc2)cc1
  TDP1 block: ·	TDP1 cell noCPT: ?	uPA surface inh: 6%	DT40 TDP1 CPT: -11%	miR-21 reporter: -6%
[4] O=C(CSc1nnnn1-c1ccc(F)cc1)Nc1ccc(N2CCOCC2)c(Cl)c1
  TDP1 block: 6%	TDP1 cell noCPT: ?	uPA surface inh: ·	DT40 TDP1 CPT: 15µM*	miR-21 reporter: 9%

Going on with the list:
9: CNc1ccccc(-c2ccc3ccccc3n2)c1=O
10: CC(=C/c1ccc(C(C)C)cc1)/C=N/NC(=O)CSc1ccccn1
11: CC(/C=N/NC(=O)CSc1ccccn1)=C\c1ccc(C(C)C)cc1
12: COc1cc2[nH]c(Cl)c([N+](=O)[O-])c2cc1OC
13: CCN(CC)c1ccc(/C=N/NC(=O)CCC(=O)NCc2ccccc2)c(O)c1
14: O=C(N/N=C/c1sc(N2CCOCC2)nc1-c1ccccc1)c1cccc(S(=O)(=O)N2CCOCC2)c1
15: CCN(CC)c1ccc(/C=N/Nc2ccc(C)cc2)c(O)c1
16: CCN(CC)c1ccc(C=Nc2cc(C)ccc2C)c(O)c1

entry no.,9,10,11,12,13,14,15,16
TDP1 block,8%,5%,3%,·,8%,4%,8%,0%
TDP1 cell noCPT,23µM*,?,10µM*,21µM*,5.2µM*,4.6µM*,12µM*,?
uPA surface inh,-10%,-14%,-2%,-1%,-8%,?,6%,0%
DT40 TDP1 CPT,?,?,?,21µM*,5.2µM*,4.6µM*,12µM*,-9%
miR-21 reporter,-46%,-54%,-55%,-4%,14%,27%,-21%,-7%

17: O=C(Nc1ccccc1F)C(=Cc1sc(N2CCOCC2)nc1-c1ccccc1)C(=O)Nc1ccccc1F
18: Nc1ccc(C(=O)N/N=C/c2sc(N3CCOCC3)nc2-c2ccccc2)cc1
19: COc1ccc(N2CCN(S(=O)(=O)CCNC(=O)C(C)Oc3ccccc3)CC2)cc1 (stereo unspecified)
20: Cc1ccccc1OCC(=O)Nc1sc2c(c1C(=O)OC(C)C)CCCC2
21: CC/C(=N\NC(=O)CCC(=O)NCc1ccccc1)c1ccc(O)cc1
22: CCN(CC)c1ccc(/C=N/NC(=O)c2cccc(S(=O)(=O)N3CCOCC3)c2)c(O)c1
23: CCN(CC)c1ccc(/C=N/NC(=O)c2c(Cl)cnn2C)c(O)c1
24: CCN(CC)c1ccc(/C=N/NC(=O)CNC(=O)C2COc3ccccc3O2)c(O)c1 (stereo unspecified)

entry no.,17,18,19,20,21,22,23,24
TDP1 block,-1%,6%,2%,0%[12.3 µM],-4%,2%,8%,9%
TDP1 cell noCPT,5.2µM*,?,?,-6%,4.1µM*,5.8µM*,5.8µM*,3.3µM*
uPA surface inh,5%,6%,-1%,·,-4%,-10%,-15%,-10%
DT40 TDP1 CPT,1.6µM*,?,?,-2%,2.9µM*,4.1µM*,3.7µM*,5.8µM*
miR-21 reporter,-5%,-1%,·,-3%,8%,6%,1%,15%

25: COc1ccc(OC)c(NC(=O)Cn2c(C)nc3ccccc3c2=O)c1
26: CCCS(=O)(=O)NC(=O)C1(C)CCCN(C(=O)c2cc(-c3ccccc3)cs2)C1 (stereo unspecified)
27: O=C(c1ccccc1)c1c[nH]c2cc3c(cc2c1=O)OCO3
28: CCN(CC)S(=O)(=O)c1cccc(C(=O)N/N=C/c2cc(OC)c(O)c(OC)c2)c1
29: CCN(CC)S(=O)(=O)c1cccc(C(=O)N/N=C/c2cccc(O)c2O)c1
30: CCOC(=O)N/N=C/c1ccc(N(CC)CC)cc1O
31: CCOC(=O)N/N=C/c1ccccc1F
32: Cc1ccccc1NC(=O)Cc1nc(COC(=O)c2ccc(Cl)c(S(N)(=O)=O)c2)cs1

entry no.,25,26,27,28,29,30,31,32
TDP1 block,-3%,·,-3%,-1%,5%,8%,2%,·
TDP1 cell noCPT,-26%,-16%,·,?,4.6µM*,5.8µM*,10%,?
uPA surface inh,-1%,·,·,0%,-8%,?,-4%,5%
DT40 TDP1 CPT,7%,-13%,·,-29%,3.7µM*,8.2µM*,15%,?
miR-21 reporter,-29%,·,-11%,1%,0%,-20%,-43%,·

Reprinted at random: 2 entries already listed.
31: CCOC(=O)N/N=C/c1ccccc1F
28: CCN(CC)S(=O)(=O)c1cccc(C(=O)N/N=C/c2cc(OC)c(O)c(OC)c2)c1

entry no.,31,28
TDP1 block,2%,-1%
TDP1 cell noCPT,10%,?
uPA surface inh,-4%,0%
DT40 TDP1 CPT,15%,-29%
miR-21 reporter,-43%,1%

(next part)
33: CCN(CC)C(=O)CSc1nnc(-c2ccccc2)o1
34: CCOC(=O)C1=C(C)NC(C)=C(C(=O)OCC)C1C(=O)OCC(=O)NCCc1ccc(S(N)(=O)=O)cc1
35: COc1ccc(CN2COc3ccc4c(-c5ccc(OC)cc5)cc(=O)oc4c3C2)cc1
36: O=c1cc(-c2ccccc2)c2ccc3c(c2o1)CN(Cc1cccc(Cl)c1)CO3
37: COc1ccccc1CN1COc2ccc3c(oc(=O)c4ccccc43)c2C1
38: COc1ccc(CN2COc3ccc4c(oc(=O)c5ccccc54)c3C2)cc1OC
39: Cc1ccc(NC(=O)COC(=O)CCC2CCCC2)cc1S(=O)(=O)N1CCOCC1
40: CC1=C(C(=O)Nc2nc3ccccc3s2)C(c2ccco2)C(C#N)=C(SCC(=O)NC2CCCCC2)N1 (stereo unspecified)

entry no.,33,34,35,36,37,38,39,40
TDP1 block,5%,·,2%,7%,7%,5%,-4%,2%
TDP1 cell noCPT,-2%,-4%,21µM*,?,23µM*,-8%,-28%,21µM*
uPA surface inh,2%,-19%,·,·,·,·,0%,7%
DT40 TDP1 CPT,8%,-26%,9.2µM*,?,?,-15%,-6%,13µM*
miR-21 reporter,-40%,·,-9%,-16%,-7%,0%,·,15%

41: CN(C)C(=O)CN1C(=O)c2cccc3cccc1c23
42: COc1ccc(-c2nnc(SCC(=O)N/N=C/c3ccccc3C(=O)O)n2-c2ccc(Cl)cc2)cc1
43: COc1ccc(-n2c(-c3ccc(Cl)cc3)cc3c2CC(C)(C)CC3=O)c(OC)c1
44: COc1ccc(C)cc1-n1c(-c2ccc(Cl)cc2)cc2c1CC(C)(C)CC2=O
45: Cc1cc2c(n1-c1ccc(Cl)cc1)CC(C)(C)CC2=O
46: COc1ccc(OC)c(NC(=O)c2cc3c(n(-c4ccc(Cl)cc4)c2=O)CC(C)(C)CC3=O)c1
47: Cc1ccc(-c2cc3c(n2-c2ccccc2F)CC(C)(C)CC3=O)cc1

entry no.,41,42,43,44,45,46,47
TDP1 block,0%,10%,13%,7%,4%,·,9%
TDP1 cell noCPT,-8%,-10%,18µM*,15µM*,1%,-6%,13µM*
uPA surface inh,-2%,-21%,·,·,11%,·,·
DT40 TDP1 CPT,-5%,-1%,23µM*,?,?,?,18µM*
miR-21 reporter,0%,6%,17%,-3%,-1%,0%,-3%

Source: PubChem (National Center for Advancing Translational Sciences (NCATS))
